Assay results from patent US8426138B2 (priority 2006, dated 2013).

The chains behind the UniProt entries cited, without tags or fusion partners.
UniProt P37288, whole entry: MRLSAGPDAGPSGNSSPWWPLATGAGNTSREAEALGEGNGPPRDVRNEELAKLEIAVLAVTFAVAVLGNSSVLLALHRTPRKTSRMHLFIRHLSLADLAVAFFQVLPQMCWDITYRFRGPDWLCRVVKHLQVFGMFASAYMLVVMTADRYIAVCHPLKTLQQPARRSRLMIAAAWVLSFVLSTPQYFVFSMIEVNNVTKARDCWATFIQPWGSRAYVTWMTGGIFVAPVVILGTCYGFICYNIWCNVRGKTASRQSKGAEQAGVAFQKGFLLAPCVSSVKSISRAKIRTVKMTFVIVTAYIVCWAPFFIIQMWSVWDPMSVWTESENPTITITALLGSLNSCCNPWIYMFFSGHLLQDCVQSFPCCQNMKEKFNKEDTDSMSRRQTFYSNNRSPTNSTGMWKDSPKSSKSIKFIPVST

Biological target: Arginine-vasopressin receptor 1a (AVPR1a) (Homo sapiens, UniProt P37288)
Conditions: 2 hr
Source text: Plasmids. […] Other FYVE domains were generated similarly by RT-PCR^˜. […] To generate a β2AR-eYFP-α construct, the eYFP-α fragment was subcloned into the β2AR-ωplasmid using Xhol and HindIII. The Angiotensin receptor 1a was derived by RT-PCR from C57/BI6 mouse brain RNA using primers for the entire coding sequence, minus the stop codon; it was cloned N-terminally to eYFP-α or ω with MfeI and XhoI. […] Finally, to generate fusion proteins with β-arrestin, the full coding sequence of human β-arrestin B2 was PCR amplified from a cDNA clone and inserted into the Mfel-XhoI sites of the ω and eYFP-α vectors.
Assays and cell preparation. […] LysoTracker Red and Texas Red-labeled transferrin were purchased from Molecular Probes. The Kinase/Phosphatase Inhibitor Library was purchased from BIOMOL, and the Mechanistic and Diversity Compound Libraries were provided by the Developmental Therapeutics Program of the National Cancer Institute. Cells were plated and grown to confluency in 96-well white tissue culture dishes (Corning Costar), in 100 μl of growth media. Dose-response curves were generated by adding the respective ligand to the media and incubating for 2 h at 37° C. […]

## NC(=O)CC[C@@H]1NC(=O)[C@H](Cc2ccccc2)NC(=O)[C@H](Cc2ccc(O)cc2)NC(=O)[C@@H](N)CSSC[C@@H](C(=O)N2CCC[C@H]2C(=O)N[C@@H](CCCN=C(N)N)C(=O)NCC(N)=O)NC(=O)[C@H](CC(N)=O)NC1=O [vasopressin, [Arg^8]-vasopressin]
  induction, arrestin assay: approximately 9 fold
